The values below are quoted from earlier work in article PMC6278313.

The data set deals with human COX-2. Conditions: human whole blood; COX-2 over COX-1; cited from earlier work.

Where only a bound is given, the exact number is not on record here.

In the case of `CS(=O)(=O)c1ccc(-c2nc(Cl)cc(NCc3cccs3)n2)cc1` [Compound 25, 6-Chloro-2-(4-(methylsulfonyl)phenyl)-N-(thiophen-2-ylmethyl)pyrimidin-4-amine], the “Selectivity vs. COX-1” value is listed as >81,300.
